Measured values published in ChEMBL document CHEMBL3352492, “Selenorhodamine photosensitizers for photodynamic therapy of P-glycoprotein-expressing cancer cells” (J Med Chem, 2014).

Protein sequences, listed by entry. Tags and fused reporters are not part of them.
UniProt P08183, whole entry: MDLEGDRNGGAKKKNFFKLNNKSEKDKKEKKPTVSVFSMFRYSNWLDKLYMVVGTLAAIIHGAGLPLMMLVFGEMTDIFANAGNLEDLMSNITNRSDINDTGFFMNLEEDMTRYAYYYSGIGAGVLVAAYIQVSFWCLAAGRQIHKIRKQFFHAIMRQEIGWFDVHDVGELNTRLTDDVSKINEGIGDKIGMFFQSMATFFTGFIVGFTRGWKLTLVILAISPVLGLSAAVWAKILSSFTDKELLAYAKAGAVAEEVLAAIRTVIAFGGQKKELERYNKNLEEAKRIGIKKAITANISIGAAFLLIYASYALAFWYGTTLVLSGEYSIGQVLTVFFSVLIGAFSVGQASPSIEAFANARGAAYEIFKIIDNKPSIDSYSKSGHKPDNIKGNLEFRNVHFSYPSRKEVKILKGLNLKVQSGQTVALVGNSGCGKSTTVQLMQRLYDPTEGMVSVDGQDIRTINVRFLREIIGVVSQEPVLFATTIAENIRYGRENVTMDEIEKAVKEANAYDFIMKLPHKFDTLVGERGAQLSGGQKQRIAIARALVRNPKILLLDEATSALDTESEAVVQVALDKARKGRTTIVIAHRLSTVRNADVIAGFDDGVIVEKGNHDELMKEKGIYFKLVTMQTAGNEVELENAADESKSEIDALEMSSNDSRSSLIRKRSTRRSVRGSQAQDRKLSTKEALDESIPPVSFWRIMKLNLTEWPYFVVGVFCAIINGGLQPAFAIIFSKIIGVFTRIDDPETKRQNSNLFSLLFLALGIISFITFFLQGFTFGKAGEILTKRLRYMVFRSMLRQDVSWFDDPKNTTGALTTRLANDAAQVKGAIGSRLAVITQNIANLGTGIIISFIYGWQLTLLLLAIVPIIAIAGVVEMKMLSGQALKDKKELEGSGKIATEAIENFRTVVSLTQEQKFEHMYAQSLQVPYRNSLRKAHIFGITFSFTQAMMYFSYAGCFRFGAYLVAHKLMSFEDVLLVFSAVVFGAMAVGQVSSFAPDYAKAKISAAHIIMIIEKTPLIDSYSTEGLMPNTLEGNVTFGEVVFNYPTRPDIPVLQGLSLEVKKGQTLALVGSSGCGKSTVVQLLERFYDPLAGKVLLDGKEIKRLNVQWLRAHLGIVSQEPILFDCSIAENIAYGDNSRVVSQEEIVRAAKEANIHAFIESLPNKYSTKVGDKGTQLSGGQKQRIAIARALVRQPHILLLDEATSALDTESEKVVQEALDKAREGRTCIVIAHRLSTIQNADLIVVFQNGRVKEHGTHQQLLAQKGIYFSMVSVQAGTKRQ

Biological target: ATP-dependent translocase ABCB1 (Homo sapiens, UniProt P08183)

## O[C@@H](COc1cccc2ncccc12)CN1CCN([C@@H]2c3ccccc3[C@@H]3[C@H](c4ccccc42)C3(Cl)Cl)CC1
  IC50: 400 nM
